Assay results as given in article PMC8449129, “Single tracer-based protocol for broad-spectrum kinase profiling in live cells with NanoBRET” (STAR Protocols, 2021).

Sequences of proteins named here, by UniProt entry; tags and fusion partners are left off. Residues count along the entry.
UniProt Q12866, 21-999: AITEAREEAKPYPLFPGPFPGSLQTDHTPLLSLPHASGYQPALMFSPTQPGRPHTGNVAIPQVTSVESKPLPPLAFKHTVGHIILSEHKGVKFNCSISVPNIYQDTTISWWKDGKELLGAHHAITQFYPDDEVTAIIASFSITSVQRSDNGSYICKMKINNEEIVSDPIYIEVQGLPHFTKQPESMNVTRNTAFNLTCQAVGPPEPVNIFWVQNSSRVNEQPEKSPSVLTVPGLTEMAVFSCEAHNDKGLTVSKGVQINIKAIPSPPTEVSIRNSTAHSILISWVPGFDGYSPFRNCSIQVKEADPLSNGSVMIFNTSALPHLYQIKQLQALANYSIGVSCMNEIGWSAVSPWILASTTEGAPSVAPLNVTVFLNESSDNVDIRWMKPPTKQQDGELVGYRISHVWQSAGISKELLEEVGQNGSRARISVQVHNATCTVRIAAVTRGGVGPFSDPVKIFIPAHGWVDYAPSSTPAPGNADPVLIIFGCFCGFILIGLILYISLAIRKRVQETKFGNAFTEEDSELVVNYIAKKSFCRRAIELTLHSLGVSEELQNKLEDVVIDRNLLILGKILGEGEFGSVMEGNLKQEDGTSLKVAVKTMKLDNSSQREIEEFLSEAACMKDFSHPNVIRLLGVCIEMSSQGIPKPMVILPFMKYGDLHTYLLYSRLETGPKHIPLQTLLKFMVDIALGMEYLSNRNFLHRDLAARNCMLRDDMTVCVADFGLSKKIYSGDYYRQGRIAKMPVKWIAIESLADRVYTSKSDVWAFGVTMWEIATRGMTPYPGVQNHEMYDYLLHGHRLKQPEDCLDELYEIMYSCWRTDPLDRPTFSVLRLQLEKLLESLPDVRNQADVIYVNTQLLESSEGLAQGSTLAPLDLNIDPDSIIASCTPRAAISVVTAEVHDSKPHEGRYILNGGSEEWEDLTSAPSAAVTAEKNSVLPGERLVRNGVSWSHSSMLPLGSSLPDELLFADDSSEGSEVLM
UniProt O15146, 24-869: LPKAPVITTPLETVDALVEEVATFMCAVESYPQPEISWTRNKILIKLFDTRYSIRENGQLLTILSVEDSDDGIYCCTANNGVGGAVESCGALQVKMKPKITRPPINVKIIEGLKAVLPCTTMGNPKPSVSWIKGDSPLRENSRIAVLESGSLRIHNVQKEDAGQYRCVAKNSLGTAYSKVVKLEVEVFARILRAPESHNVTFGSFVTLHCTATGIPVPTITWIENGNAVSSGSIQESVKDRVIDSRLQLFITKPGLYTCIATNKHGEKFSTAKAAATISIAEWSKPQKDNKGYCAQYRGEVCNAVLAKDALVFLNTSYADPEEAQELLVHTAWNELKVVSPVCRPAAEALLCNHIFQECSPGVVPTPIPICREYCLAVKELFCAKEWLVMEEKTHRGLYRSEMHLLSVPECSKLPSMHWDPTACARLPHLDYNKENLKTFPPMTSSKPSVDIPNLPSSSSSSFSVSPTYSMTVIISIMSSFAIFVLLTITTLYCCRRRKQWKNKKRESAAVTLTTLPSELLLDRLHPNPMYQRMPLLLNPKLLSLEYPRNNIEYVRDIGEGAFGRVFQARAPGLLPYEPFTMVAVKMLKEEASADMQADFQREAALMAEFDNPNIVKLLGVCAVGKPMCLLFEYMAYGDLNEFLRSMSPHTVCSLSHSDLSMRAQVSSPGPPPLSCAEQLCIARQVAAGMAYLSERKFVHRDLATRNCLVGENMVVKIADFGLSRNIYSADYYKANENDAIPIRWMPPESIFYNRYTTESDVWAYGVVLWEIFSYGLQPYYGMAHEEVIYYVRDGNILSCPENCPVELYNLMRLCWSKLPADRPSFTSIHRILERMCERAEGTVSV

What was measured:
MERTK = MERTK (Homo sapiens, UniProt Q12866); conditions: […] crizotinib; […] Tracer K10; […] h, […] C; n = […]
MUSK = MUSK (Homo sapiens, UniProt O15146); conditions: […] crizotinib; […] Tracer K10; […] h, […] C; n = […]

**Q.** With `C[C@@H](Oc1cc(-c2cnn(C3CCNCC3)c2)cnc1N)c1c(Cl)ccc(F)c1Cl` [crizotinib] as the compound, how does the “Crizotinib % occupancy, 1 uM” value (MERTK) read?
**A.** 58 ± 3.3%

**Q.** What about the “Crizotinib % occupancy, 1 uM” value (MUSK) of the same compound?
**A.** 80 ± 2.8%
